Data taken from article PMC8927147, “Global profiling of regulatory elements in the histone benzoylation pathway” (Nature Communications, 2022).

Molecular target: T1, Gcn5-Ada2 complex (Saccharomyces cerevisiae, UniProt Q03330)
T1 sequence (Q03330 67-317): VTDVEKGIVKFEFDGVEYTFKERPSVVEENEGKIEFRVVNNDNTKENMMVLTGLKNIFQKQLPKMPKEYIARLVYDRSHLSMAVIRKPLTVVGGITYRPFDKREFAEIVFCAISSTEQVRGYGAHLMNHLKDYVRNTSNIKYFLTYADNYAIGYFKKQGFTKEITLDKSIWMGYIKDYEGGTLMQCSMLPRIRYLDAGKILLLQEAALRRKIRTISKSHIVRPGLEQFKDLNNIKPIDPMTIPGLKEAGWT
T1 sequence (Q02336 1-120 partner): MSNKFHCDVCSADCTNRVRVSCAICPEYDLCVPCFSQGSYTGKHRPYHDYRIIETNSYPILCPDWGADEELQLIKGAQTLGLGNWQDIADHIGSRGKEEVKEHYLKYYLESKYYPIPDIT
Experiment: ITC binding of acyl-CoAs to the Gcn5-Ada2 complex
Details: Supplementary Fig. 3j, value given in the reply to reviewers
Description: ITC titrations were performed using a MicroCal ITC200 system (GE Healthcare, USA) at 20 °C. For ITC measurement, peptides and proteins were dialyzed into the same buffer (25 mM Tris-HCl, pH 8.0, 150 mM NaCl). […] For reader-related ITC experiments, peptides at 2.0 mM in the syringe were titrated into Taf14YEATS/Sas5YEATS/Sth1BD at 0.1–0.2 mM in the sample cell. Each titration consisted of 20 successive injections. The titration curves were processed using the Origin 7.0 software program (OriginLab) according to the one-binding-site fitting model. Each titration was repeated twice, and one representative plot was shown in the paper. The dissociation constants (Kd), enthalpy changes (ΔH), and fitting errors were derived from one representative ITC plot.

## succinyl-CoA
  Kd: 14.5 µM
